US7517889B2, “2,6-substituted-4-monosubstitutedamino-pyrimidine as prostaglandin D2 receptor antagonists” (Aventis Pharmaceuticals, Inc., priority 2004, dated 2009)

Target: T1, DP receptor (Homo sapiens, UniProt Q13258)
T1 construct: the human cell line LS174T, which expresses the endogenous DP receptor; endogenous in cells; host or cells: LS174T human cell line
T1 sequence (Q13258 1-359): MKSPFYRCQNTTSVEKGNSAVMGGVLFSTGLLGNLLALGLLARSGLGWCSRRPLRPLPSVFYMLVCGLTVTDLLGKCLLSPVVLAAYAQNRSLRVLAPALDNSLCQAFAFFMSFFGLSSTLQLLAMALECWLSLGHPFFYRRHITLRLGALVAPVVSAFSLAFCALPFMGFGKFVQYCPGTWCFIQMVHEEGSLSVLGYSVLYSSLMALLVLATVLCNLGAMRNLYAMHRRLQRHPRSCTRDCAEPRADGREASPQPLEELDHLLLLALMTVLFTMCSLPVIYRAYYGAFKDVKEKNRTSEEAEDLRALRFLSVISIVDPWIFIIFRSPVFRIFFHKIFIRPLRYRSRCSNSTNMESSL
Test: SPA cAMP assay in human LS174 T cells (human DP functional assay)
Type: cell-based
Method: The inhibitory effects of the compounds according to the invention are assessed in a human DP functional assay. A cAMP assay is employed using the human cell line LS174T, which expresses the endogenous DP receptor.
Protocol for SPA cAMP Assay in Human LS174 T Cells
• 1) Add equal volumes of tracer, antiserum and SPA anti-rabbit reagent to a bottle, ensuring that a sufficient volume of this mixture is prepared for the desired number of wells (150 μL/well). • 2) Mix thoroughly. • 3) This immunoreagent solution should be freshly prepared before each assay and not re-used.
Add 50 μL of […] IBMX into 100 mL PBS to make a final concentration of 100 μM and sonicate at 30° C. for 20 minutes.
Before each assay, it is freshly prepared. Add 3 μL of 10 mM stock solution to 20 mL DMSO, mix it thoroughly, and transfer 10 mL to 40 mL PBS.
Compound dilution is carried out in Biomex 2000 (Beckman) using Method 1_cAMP DP 11 points.
5 μL of each compound from the 10 mM stock compound plates is transferred to the wells of a 96-well plate respectively as below.
Fill the plate with 45 μL of DMSO except column 7 is filled with 28 μL DMSO. Pipette column 1 thoroughly, and transfer 12 μL into column 7 parallel. […]
The cAMP concentrations (pmol/mL) of unknown samples are calculated from a standard curve of cAMP versus CPM. % inhibition is calculated using the following formula: […]

| SMILES | pIC50 |
| --- | --- |
| COc1nc(NCCc2ccc(Cl)cc2Cl)cc(-c2cccc(C(F)(F)c3nnn[nH]3)c2)n1 [Example 82(c), [2-(2,4-Dichloro-phenyl)-ethyl]-(6-{3-[difluoro-(1H-tetrazol-5-yl)-methyl]-phenyl}-2-methoxy-pyrimidin-4-yl)-amine] | 10.00 |
| COc1ccc(CCNc2cc(-c3cccc(-c4nnn[nH]4)c3)nc(OC)n2)cc1 [Example 54, [2-(4-Methoxy-phenyl)-ethyl]-{2-methoxy-6-[3-(1H-tetrazol-5-yl)-phenyl]-pyrimidin-4-yl}-amine, sodium salt] | 9.40 |

pIC50: −log10 of the molar value. Counter-ions that a name gives are not always drawn.
